Key:
Homo sapiens [1] = species on record: Homo sapiens; assay: Selectivity for human NEP over ECE-1 (unknown origin)
Homo sapiens [2] = species on record: Homo sapiens; assay: Selectivity for human NEP over NEP-2 (unknown origin)
Homo sapiens [3] = species on record: Homo sapiens; assay: Selectivity for human NEP over ACE (unknown origin)
Homo sapiens [4] = species on record: Homo sapiens; assay: Selectivity for human NEP over ECE-2 (unknown origin)

Measured: Selectivity ratio

CC(C)C[C@H](NC(=O)C(CC(=O)C(S)Cc1ccc(Br)cc1)Cc1ccccc1)C(=O)O (some centres undefined)
20: all assays above

— ChEMBL document CHEMBL4052733, “Substituted α-mercaptoketones, new types of specific neprilysin inhibitors” (Bioorg Med Chem Lett, 2017)
